Data published in US9777020B2, “Furo-3-carboxamide derivatives and methods of use” (AbbVie Inc., priority 2014, dated 2017).

By UniProt entry, the sequences of proteins in these tests, tags left out. Residues count along the entry.
UniProt P04629, 33-796: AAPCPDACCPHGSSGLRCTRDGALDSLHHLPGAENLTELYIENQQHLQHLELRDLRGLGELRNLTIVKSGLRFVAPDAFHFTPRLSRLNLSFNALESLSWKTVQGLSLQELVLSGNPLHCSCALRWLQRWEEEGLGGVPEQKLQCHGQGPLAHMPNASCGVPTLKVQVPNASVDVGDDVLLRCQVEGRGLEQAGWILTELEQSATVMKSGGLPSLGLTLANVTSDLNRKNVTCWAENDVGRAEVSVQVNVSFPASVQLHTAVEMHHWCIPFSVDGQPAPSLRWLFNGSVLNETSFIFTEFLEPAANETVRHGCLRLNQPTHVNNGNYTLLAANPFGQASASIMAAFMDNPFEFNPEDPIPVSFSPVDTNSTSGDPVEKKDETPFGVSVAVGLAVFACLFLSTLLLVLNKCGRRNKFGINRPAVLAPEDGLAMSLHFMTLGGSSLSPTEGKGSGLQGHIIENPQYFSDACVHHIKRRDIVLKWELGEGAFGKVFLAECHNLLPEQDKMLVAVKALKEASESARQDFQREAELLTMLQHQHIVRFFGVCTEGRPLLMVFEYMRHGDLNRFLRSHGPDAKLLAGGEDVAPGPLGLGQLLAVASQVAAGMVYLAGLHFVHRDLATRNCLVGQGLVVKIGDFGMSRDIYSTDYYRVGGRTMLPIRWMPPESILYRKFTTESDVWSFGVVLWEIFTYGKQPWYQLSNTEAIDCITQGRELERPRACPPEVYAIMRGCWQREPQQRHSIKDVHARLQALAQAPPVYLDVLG

Each compound was assayed against TrkA (Homo sapiens (Human), UniProt P04629) (assay: TrkA kinase HTRF enzyme inhibition assay). Details: TrkA pre-incubated with 200 μM ATP.
Format: biochemical
Protocol: TrkA enzyme was obtained from Invitrogen (as catalog numbers PV3144, PV3616, and PV3617, respectively). Enzyme activity was measured in an HTRF® (homogeneous time resolved fluorescence) assay, which detects enzymatic phosphorylation of a biotinylated synthetic peptide substrate (an LCK peptide analog, biotin-ahx-GAEEEIYAAFFA, from Genemed Synthesis). Phosphorylation is assessed by HTRF® in the presence of an anti-phosphotyrosine antibody conjugated to Eu^3+ cryptate (Cisbio) as donor fluorophore, and streptavidin conjugated to allophycocyanin (ProZyme) as acceptor fluorophore. The HTRF® signal was detected at two different wavelengths (620 nm and 665 nm) which were used to calculate the fluorescence ratio.
TrkA enzyme was titrated to a concentration optimized to ensure accurate measurement of the initial reaction rate. To allow the TrkA enzyme to undergo activation and auto-phosphorylation, a 20 minute pre-incubation with ATP was carried out (at twice the final targeted enzyme and ATP concentration) prior to addition of test compound and the peptide substrate.
TrkA in vitro assays were performed by pre-incubating TrkA (2-10 nM) with ATP (200 μM) for 20 minutes at ambient temperature in 50 mM HEPES pH 7.4, 10 mM MgCl2, 2 mM MnCl2, 100 μM Na3VO4, 1 mM dithiothreitol, 0.01% BSA (bovine serum albumin). Then, to the activated Trk enzyme mixture was added the test compound in 2% dimethyl sulfoxide. After 10 minutes, the peptide substrate (125 nM) was added. After 1 hour, enzyme reactions were terminated by addition of equal reaction volumes of detection/stop reagent (containing 0.2 μg/mL anti-phosphotyrosine monoclonal antibody labeled with europium from Cisbio (catalog#PT66-K), and 4 μg/mL PhycoLink® Streptavidin-Allophycocyanin conjugate from ProZyme (catalog#PJ25S) in 60 mM EDTA in 40 mM HEPES pH 7.4, 480 mM KF, 0.01% Tween® 20 and 0.1% BSA bovine serum albumin) Reaction plates were stored at 4° C. overnight before reading the fluorescence ratio signal on a PerkinElmer EnVision™ fluorescence detector. Individual reaction wells were stopped at time points to obtain reaction rates. The test inhibitor compounds were assayed in duplicate, at half-log serial dilutions over a range of concentrations (e.g. starting at 50 μM or 5 μM as the high compound concentration). The percent Trk enzyme inhibition was calculated from the initial rates of the inhibited reactions relative to the uninhibited control. IC50 values were calculated by fitting the inhibition percent to the concentration of inhibitor [I] in the assay in equation 1 below, to solve for the IC50. Inhibition %=100[I]/([I]+[IC50]) equation 1

Q: For `Cn1cc2cc(NC(=O)c3coc4c3C(=O)C(C)(C)CC4)ccc2n1` [Example 168, 5,5-dimethyl-N-(2-methyl-2H-indazol-5-yl)-4-oxo-4,5,6,7-tetrahydro-1-benzofuran-3-carboxamide], which IC50 is on record?
A: Its IC50 is 0.0059 µM.

Q: With `COc1cc(N2CCNCC2)ccc1NC(=O)c1coc2c1C(=O)NCC2` [Example 6, N-[2-methoxy-4-(piperazin-1-yl)phenyl]-4-oxo-4,5,6,7-tetrahydrofuro[3,2-c]pyridine-3-carboxamide] as the compound, how does the IC50 read?
A: Its IC50 is 0.0467 µM.

Q: `CCOc1nc(N2CCN(C(C)=O)CC2)ccc1NC(=O)c1coc2c1C(=O)N(CCO)CC2` [Example 9, N-[6-(4-acetylpiperazin-1-yl)-2-ethoxypyridin-3-yl]-5-(2-hydroxyethyl)-4-oxo-4,5,6,7-tetrahydrofuro[3,2-c]pyridine-3-carboxamide] was tested. Which IC50 did it give?
A: Its IC50 is 0.0051 µM.

Q: How did the IC50 turn out when `CN1CCc2occ(C(=O)Nc3ccc4nn(C)cc4c3)c2C1=O` [Example 2, 5-methyl-N-(2-methyl-2H-indazol-5-yl)-4-oxo-4,5,6,7-tetrahydrofuro[3,2-c]pyridine-3-carboxamide] was run?
A: The IC50 was 0.0602 µM.
